Test results from patent publication US10945951B2, “Apparatus for compound dispersion” (Biogen MA Inc., priority 2014, dated 2021).

What was measured:
[1] = design: species or system rodent; details: in vivo
From the text: ^123I-Albumin was intravenously and intrathecally injected into a rodent. FIGS. 10A and 10B are scans of the concentration of ^123I-Albumin after intravenous injection. […] Consequently, the application of forces and increased bolus volumes described herein may be used for low molecular weight compounds as well as larger molecular weight compounds.

[2] = design: species or system rodent; details: in vivo; remark: listed apart in the source
From the text: FIGS. 12A and 13A show scans of the concentration of ^123I-Albumin after injection into the cisterna magnum and lumbar cistern into a rodent respectively. FIGS. 12B and 13B present graphs of the concentration of ^123I-Albumin from the head to the feet at different time points after cisternal injection and intrathecal injection respectively. […] Lymphoseek ([^99mTc]DTPA-mannosyl-dextran, […] Biopharmaceuticals)

In the case of ^123I-Albumin, the “distribution in the body” value [1] is reported as “stays relatively localized within the CSF”, the “distribution in the body” value ([1]; iv) is reported as “distributed throughout the rodent's body and does not specifically target the CNS” and the “distribution from the head to the feet” value [2] is reported as “more even distribution of albumin from the head to the feet”.

Where two headings read alike, the source gives them in different places.
